Test results from ChEMBL document CHEMBL1681705, “Optimisation of ITK inhibitors through successive iterative design cycles” (Bioorg Med Chem Lett, 2011).

By UniProt entry, the sequences of proteins in these tests, tags left out.
UniProt P22607, whole entry, looked up: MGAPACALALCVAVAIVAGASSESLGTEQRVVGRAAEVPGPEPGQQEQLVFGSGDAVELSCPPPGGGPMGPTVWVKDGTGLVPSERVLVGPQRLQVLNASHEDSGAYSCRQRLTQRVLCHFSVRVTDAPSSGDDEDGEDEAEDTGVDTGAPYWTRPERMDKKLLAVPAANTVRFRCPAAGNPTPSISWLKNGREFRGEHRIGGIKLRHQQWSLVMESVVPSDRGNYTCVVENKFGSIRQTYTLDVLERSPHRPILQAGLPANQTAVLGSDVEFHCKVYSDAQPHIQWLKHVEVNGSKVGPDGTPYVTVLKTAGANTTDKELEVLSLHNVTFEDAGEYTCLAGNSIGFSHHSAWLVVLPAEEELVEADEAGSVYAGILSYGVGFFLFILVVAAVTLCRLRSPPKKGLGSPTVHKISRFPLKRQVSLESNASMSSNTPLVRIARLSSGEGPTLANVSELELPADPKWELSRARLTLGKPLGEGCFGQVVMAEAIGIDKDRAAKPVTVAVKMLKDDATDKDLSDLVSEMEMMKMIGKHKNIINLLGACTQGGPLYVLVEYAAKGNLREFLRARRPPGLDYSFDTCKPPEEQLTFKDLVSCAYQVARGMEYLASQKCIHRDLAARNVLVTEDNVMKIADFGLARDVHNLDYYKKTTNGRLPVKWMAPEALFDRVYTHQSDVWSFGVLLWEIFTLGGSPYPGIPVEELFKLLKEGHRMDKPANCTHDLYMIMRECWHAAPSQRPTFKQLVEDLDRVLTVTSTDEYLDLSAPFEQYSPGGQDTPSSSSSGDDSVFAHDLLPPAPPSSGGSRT
UniProt Q13177, whole entry: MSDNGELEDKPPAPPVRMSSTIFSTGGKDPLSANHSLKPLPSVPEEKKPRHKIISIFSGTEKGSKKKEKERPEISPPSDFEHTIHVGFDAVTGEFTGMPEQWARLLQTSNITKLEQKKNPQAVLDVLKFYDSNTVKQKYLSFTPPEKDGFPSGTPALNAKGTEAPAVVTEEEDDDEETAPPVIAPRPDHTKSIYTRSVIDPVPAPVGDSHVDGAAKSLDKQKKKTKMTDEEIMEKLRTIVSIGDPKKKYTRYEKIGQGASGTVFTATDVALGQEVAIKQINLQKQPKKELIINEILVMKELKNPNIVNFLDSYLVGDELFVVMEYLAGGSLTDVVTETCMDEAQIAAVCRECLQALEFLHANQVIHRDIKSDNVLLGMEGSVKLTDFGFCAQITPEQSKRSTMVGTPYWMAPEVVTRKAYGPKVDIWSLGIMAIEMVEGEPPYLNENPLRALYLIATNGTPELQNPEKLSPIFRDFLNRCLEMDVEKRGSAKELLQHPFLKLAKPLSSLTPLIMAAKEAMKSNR

Key:
[1] = target: Fibroblast growth factor receptor 3 (Homo sapiens) (UniProt P22607); details: 0.1 uM
[2] = Inhibition of ROCK1 at 1 uM
[3] = target: T1, Ephrin type-B receptor 3 (Homo sapiens) (UniProt P54753); experiment: Inhibition of EphB3 at 0.1 uM; values are per cent of control
T1 sequence (whole entry): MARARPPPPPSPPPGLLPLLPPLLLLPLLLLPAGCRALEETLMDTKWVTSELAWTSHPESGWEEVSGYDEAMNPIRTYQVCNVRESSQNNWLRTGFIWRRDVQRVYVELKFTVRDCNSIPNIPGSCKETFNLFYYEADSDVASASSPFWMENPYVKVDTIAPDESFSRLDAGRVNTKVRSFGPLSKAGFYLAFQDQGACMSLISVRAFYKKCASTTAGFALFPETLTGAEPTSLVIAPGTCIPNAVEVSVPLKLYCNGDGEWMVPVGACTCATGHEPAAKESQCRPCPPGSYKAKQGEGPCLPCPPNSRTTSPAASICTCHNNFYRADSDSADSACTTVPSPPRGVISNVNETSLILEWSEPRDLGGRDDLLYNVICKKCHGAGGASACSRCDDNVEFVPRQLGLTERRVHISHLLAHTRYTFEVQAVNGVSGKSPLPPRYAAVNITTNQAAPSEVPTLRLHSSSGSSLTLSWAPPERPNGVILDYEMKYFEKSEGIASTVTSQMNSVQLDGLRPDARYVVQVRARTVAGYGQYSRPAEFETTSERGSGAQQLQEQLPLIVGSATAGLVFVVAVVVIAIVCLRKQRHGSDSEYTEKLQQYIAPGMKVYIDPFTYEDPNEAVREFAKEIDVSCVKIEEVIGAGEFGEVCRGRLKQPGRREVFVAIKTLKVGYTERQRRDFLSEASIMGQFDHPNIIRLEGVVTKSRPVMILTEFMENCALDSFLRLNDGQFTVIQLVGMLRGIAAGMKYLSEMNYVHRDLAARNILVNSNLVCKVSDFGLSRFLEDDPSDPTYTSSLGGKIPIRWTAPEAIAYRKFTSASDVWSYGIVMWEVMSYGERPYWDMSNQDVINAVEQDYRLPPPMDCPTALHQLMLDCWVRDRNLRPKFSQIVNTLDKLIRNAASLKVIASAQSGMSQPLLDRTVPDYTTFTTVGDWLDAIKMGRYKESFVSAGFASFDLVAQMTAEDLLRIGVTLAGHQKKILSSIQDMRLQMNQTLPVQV

[4] = target: Serine/threonine-protein kinase PAK 2 (Homo sapiens) (UniProt Q13177); experiment: Inhibition of PAK2 at 0.1 uM; values are per cent of control

| inhibition [1] | inhibition [2] | residual activity [3] | residual activity [4] | Compound |
| --- | --- | --- | --- | --- |
| 17% | 17% | 83% | 83% | Cc1ccc2cc(-c3n[nH]c4ccc(NC5CCNC5)cc34)[nH]c2c1 (stereo not given) |
| 27% |  |  |  | Cc1ccc2cc(-c3n[nH]c4ccc(NC5CCN(Cc6ccccc6)CC5)cc34)[nH]c2c1 |
